Measured values reported in patent publication US9156848B2, “Treating diabetes with dipeptidyl peptidase-IV inhibitors” (Merck Sharp & Dohme Corp., priority 2012, dated 2015).

Sequences of proteins named here, by UniProt entry; tags and fusion partners are left off. Residues count along the entry.
UniProt P27487, 29-766: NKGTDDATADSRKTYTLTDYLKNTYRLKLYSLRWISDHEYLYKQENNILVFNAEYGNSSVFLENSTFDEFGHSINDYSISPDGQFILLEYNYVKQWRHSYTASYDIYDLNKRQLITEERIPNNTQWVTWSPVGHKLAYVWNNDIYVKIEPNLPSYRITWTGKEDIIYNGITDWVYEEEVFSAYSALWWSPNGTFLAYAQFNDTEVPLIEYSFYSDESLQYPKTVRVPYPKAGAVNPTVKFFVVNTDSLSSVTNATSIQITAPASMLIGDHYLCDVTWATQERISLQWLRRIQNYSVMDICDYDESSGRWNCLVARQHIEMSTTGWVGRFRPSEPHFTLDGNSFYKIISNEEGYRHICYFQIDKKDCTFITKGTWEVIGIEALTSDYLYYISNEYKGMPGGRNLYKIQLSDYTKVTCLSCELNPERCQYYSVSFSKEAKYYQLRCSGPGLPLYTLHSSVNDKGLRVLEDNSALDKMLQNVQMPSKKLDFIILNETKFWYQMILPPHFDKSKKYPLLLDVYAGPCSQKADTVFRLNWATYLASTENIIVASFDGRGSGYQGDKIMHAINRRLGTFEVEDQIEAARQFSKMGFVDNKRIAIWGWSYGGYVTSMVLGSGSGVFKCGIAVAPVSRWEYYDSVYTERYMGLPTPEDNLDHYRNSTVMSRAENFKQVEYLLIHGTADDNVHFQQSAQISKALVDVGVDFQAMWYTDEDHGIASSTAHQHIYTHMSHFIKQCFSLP

Biological target: dipeptidyl peptidase-IV enzyme (DPP-4) (Homo sapiens (Human), UniProt P27487)
Test: continuous fluorometric assay with substrate Gly-Pro-AMC (DPP-4 inhibition)
Format: biochemical
Details: soluble human DPP-4, 50 μM Gly-Pro-AMC, pH 7.5, room temperature
Method: Inhibition constants are determined as follows. A continuous fluorometric assay is employed with the substrate Gly-Pro-AMC, which is cleaved by DPP-4 to release the fluorescent AMC leaving group. The kinetic parameters that describe this reaction are as follows: […] A typical reaction contains approximately 50 pM enzyme, 50 μM Gly-Pro-AMC, and buffer (100 mM HEPES, pH 7.5, 0.1 mg/ml BSA) in a total reaction volume of 100 μL. Liberation of AMC is monitored continuously in a 96-well plate fluorometer using an excitation wavelength of 360 nm and an emission wavelength of 460 nm. Under these conditions, approximately 0.8 μM AMC is produced in 30 minutes at 25 degrees C. The enzyme used in these studies was soluble (transmembrane domain and cytoplasmic extension excluded) human protein produced in a baculovirus expression system (Bac-To-Bac, Gibco BRL). […] To measure the dissociation constants for compounds, solutions of inhibitor in DMSO were added to reactions containing enzyme and substrate (final DMSO concentration is 1%). All experiments were conducted at room temperature using the standard reaction conditions described above. To determine the dissociation constants (Ki), reaction rates were fit by non-linear regression to the Michaelis-Menton equation for competitive inhibition. The errors in reproducing the dissociation constants are typically less than two-fold.

## C[C@]1(N2Cc3c[nH]nc3C2)CO[C@H](c2cc(F)ccc2F)[C@@H](N)C1 [Example 2]
  IC50: 34.5 nM
